These are literature values, as cited in patent publication US8741957B2, “Alpha-aminoamide derivatives useful in the treatment of cognitive disorders” (priority 2006, dated 2014).

The test system of this data set is models of cerebral ischemia and PD. The conditions noted are these: cited from earlier work.

For `Nc1nc2ccc(OC(F)(F)F)cc2s1` [riluzole], the neuroprotection result was “neuroprotective”.
